According to ChEMBL document CHEMBL4680376, “Discovery of Orally Active and Nonsteroidal Farnesoid X Receptor (FXR) Antagonist with Propensity for Accumulation and Responsiveness in Ileum” (ACS Med Chem Lett, 2021):
Calls of active or inactive are those of the source. No cut-off for these calls is given here.

Amino acid sequences for entries named in this document (tags omitted). A change or cut given only in a name is not applied to a line headed by its entry.
UniProt P37231: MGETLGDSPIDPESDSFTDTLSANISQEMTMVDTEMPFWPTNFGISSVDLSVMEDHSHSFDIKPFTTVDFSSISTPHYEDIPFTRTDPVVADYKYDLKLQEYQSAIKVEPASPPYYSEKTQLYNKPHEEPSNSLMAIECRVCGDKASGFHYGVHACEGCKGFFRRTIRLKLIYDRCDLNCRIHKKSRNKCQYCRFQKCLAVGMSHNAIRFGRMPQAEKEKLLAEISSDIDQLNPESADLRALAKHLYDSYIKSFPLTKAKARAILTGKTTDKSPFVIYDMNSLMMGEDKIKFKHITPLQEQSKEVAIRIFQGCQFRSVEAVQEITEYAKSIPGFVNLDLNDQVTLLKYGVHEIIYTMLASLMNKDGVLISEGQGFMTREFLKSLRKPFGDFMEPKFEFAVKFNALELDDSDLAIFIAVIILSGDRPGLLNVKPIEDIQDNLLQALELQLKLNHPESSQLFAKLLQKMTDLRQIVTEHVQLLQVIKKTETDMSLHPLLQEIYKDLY
UniProt P10276, whole entry: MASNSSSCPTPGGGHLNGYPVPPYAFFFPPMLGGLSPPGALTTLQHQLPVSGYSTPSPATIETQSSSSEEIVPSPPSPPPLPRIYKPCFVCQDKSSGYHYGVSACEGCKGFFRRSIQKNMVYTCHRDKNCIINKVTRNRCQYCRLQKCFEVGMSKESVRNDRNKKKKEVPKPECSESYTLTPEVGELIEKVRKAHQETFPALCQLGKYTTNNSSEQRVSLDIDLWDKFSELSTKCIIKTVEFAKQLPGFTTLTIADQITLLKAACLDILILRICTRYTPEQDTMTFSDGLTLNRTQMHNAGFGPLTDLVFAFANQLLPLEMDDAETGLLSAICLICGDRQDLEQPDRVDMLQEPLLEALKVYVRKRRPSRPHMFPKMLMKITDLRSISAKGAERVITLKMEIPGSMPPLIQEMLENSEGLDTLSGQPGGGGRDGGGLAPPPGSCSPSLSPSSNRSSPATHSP
UniProt P55055, whole entry: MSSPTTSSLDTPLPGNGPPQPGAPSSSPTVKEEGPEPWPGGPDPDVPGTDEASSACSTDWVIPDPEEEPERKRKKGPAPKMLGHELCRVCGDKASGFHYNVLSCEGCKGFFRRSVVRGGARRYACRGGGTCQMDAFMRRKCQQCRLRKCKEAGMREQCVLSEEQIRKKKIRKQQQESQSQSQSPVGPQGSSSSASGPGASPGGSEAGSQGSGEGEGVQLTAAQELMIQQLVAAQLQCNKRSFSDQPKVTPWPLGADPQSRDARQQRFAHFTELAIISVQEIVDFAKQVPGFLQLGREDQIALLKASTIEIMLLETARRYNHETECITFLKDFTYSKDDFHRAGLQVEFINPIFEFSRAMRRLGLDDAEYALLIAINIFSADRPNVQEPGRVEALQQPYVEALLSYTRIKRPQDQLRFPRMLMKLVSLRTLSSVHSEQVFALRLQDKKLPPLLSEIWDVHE
UniProt Q13133, whole entry: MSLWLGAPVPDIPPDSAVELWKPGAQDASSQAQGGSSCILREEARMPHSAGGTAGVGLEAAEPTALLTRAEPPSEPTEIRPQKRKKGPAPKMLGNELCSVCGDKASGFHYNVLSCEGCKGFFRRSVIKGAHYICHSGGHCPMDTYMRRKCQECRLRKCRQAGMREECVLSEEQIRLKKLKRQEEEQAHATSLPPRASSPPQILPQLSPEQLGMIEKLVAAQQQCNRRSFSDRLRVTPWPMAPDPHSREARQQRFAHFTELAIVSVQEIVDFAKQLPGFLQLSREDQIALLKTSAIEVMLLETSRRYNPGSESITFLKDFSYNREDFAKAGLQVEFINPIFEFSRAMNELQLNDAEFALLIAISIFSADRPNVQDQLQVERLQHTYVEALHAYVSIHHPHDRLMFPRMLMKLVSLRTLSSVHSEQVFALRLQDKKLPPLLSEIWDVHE

Experiments:
[1] = target: T1, Bile acid receptor (Mus musculus) (UniProt Q60641); experiment: In vivo antagonist activity at FXR in C57BL/6N mouse liver assessed as downregulation of Cyp7a1 mRNA expression at 10 to 30 mg/kg, po administered once daily for 7 days and measured after 25 hrs of last dose by qRT-PCR analysis; type: functional, organism-based; details: dose 10-30 mg/kg, time 7.0 day
T1 sequence (whole entry): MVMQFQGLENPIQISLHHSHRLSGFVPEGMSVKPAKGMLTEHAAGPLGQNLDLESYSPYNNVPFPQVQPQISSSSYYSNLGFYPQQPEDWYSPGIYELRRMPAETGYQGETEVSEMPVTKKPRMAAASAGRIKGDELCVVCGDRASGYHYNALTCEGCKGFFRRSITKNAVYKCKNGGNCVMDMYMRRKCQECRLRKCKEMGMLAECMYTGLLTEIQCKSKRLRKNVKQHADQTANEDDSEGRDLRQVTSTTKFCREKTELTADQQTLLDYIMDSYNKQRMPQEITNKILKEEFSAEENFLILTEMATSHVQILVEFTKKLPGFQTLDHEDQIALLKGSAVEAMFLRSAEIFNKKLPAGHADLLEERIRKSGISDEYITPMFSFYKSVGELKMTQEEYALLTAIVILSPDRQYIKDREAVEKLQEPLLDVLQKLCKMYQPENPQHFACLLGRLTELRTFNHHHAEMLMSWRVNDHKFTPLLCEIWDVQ

[2] = target: Peroxisome proliferator-activated receptor gamma (Homo sapiens) (UniProt P37231); experiment: Antagonist activity against human PPARgamma assessed as inhibition of GW1929-induced luciferase expression at 1 uM incubated for 24 hrs by luciferase reporter gene assay
[3] = target: T2, Peroxisome proliferator-activated receptor delta (Homo sapiens) (UniProt Q03181); experiment: Antagonist activity against human PPARdelta assessed as inhibition of GW501516-induced luciferase expression at 1 uM incubated for 24 hrs by luciferase reporter gene assay
T2 sequence (whole entry): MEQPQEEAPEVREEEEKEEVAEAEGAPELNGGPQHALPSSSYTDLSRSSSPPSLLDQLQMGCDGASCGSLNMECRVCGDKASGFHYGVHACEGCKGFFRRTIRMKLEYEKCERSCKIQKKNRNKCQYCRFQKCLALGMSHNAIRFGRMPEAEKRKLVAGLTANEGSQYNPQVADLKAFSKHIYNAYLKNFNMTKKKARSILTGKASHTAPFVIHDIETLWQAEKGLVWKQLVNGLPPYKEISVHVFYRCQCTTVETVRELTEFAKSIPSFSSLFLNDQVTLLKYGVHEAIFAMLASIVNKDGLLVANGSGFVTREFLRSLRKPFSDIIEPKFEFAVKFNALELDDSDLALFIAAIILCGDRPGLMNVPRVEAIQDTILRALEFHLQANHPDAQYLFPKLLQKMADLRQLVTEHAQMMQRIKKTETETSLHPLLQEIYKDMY

[4] = target: T3, Vitamin D3 receptor (Homo sapiens) (UniProt P11473); experiment: Antagonist activity against human VDR assessed as inhibition of 1,25-OH-VD3-induced luciferase expression at 1 uM incubated for 24 hrs by luciferase reporter gene assay
T3 sequence (whole entry): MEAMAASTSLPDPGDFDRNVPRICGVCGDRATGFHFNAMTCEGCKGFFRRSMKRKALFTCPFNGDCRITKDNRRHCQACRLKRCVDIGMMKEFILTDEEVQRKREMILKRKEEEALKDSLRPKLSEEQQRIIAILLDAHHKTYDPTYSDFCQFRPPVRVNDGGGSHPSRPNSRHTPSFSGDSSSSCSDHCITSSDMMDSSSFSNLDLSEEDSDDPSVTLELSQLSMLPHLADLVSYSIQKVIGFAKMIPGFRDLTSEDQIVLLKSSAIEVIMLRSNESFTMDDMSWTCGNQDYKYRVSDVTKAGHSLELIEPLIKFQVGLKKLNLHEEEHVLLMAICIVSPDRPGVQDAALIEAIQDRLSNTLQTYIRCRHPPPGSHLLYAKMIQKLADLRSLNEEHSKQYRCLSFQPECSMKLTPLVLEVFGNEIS

[5] = target: T4, Retinoic acid receptor RXR-alpha (Homo sapiens) (UniProt P19793); experiment: Antagonist activity against human RXR alpha assessed as inhibition of 9-cis-RA-induced luciferase expression at 1 uM incubated for 24 hrs by luciferase reporter gene assay
T4 sequence (whole entry): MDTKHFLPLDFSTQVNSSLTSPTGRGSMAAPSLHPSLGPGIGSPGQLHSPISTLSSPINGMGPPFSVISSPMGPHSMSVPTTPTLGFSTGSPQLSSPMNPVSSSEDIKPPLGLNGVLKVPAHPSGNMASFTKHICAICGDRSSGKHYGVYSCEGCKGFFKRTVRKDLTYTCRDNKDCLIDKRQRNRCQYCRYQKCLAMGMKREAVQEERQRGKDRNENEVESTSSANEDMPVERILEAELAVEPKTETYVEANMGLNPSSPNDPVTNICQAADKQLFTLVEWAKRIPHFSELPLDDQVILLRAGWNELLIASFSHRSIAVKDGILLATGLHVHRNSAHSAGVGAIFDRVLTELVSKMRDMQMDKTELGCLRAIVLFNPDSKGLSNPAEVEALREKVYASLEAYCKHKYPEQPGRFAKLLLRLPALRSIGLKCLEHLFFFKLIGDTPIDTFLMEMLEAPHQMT

[6] = target: Retinoic acid receptor alpha (Homo sapiens) (UniProt P10276); experiment: Antagonist activity against human RARalpha at 1 uM incubated for 24 hrs by luciferase reporter gene assay
[7] = target: T1, Bile acid receptor (Mus musculus); experiment: In vivo antagonist activity at FXR in C57BL/6N mouse liver assessed as downregulation of Shp mRNA expression at 10 to 30 mg/kg, po administered once daily for 7 days and measured after 25 hrs of last dose by qRT-PCR analysis; type: functional, organism-based; details: dose 10-30 mg/kg, time 7.0 day
[8] = target: T5, G-protein coupled bile acid receptor 1 (Homo sapiens) (UniProt Q8TDU6); experiment: Antagonist activity against human TGR5 assessed as inhibition of LCA-induced luciferase expression at 1 uM incubated for 24 hrs by luciferase reporter gene assay
T5 sequence (whole entry): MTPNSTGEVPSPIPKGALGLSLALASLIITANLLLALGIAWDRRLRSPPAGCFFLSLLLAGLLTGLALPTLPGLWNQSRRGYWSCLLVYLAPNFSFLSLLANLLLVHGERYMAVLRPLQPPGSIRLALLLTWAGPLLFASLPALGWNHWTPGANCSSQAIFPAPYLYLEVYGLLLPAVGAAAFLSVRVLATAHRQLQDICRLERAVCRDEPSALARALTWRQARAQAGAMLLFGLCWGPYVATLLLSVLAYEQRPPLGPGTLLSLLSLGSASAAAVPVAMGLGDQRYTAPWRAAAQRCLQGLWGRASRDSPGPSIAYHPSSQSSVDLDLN

[9] = target: T1, Bile acid receptor (Mus musculus); experiment: In vivo antagonist activity at FXR in C57BL/6N mouse liver assessed as downregulation of Bsep mRNA expression at 10 to 30 mg/kg, po administered once daily for 7 days and measured after 25 hrs of last dose by qRT-PCR analysis; type: functional, organism-based; details: dose 10-30 mg/kg, time 7.0 day
[10] = target: Oxysterols receptor LXR-beta (Homo sapiens) (UniProt P55055); experiment: Antagonist activity against human LXRbeta assessed as inhibition of TO901317-induced luciferase expression at 1 uM incubated for 24 hrs by luciferase reporter gene assay
[11] = target: T5, G-protein coupled bile acid receptor 1 (Homo sapiens); experiment: Antagonist activity against human TGR5 at 1 uM incubated for 24 hrs by luciferase reporter gene assay
[12] = target: T6, Peroxisome proliferator-activated receptor alpha (Homo sapiens) (UniProt Q07869); experiment: Antagonist activity against human PPARalpha at 1 uM incubated for 24 hrs by luciferase reporter gene assay
T6 sequence (whole entry): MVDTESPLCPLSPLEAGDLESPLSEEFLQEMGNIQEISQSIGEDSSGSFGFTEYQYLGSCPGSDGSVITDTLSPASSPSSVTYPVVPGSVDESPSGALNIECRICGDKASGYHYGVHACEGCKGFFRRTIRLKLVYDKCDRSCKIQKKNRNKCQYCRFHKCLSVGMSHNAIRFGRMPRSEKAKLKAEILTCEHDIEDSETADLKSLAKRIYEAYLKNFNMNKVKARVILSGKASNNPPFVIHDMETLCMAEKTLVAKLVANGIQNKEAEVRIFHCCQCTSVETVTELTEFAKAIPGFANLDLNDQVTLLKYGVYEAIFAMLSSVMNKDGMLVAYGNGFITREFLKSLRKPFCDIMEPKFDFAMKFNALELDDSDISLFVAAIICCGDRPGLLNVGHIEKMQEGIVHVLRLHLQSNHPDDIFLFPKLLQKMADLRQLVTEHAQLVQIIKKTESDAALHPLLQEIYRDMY

[13] = target: Oxysterols receptor LXR-alpha (Homo sapiens) (UniProt Q13133); experiment: Antagonist activity against human LXRalpha at 1 uM incubated for 24 hrs by luciferase reporter gene assay
[14] = target: T3, Vitamin D3 receptor (Homo sapiens); experiment: Antagonist activity against human VDR at 1 uM incubated for 24 hrs by luciferase reporter gene assay
[15] = target: Oxysterols receptor LXR-beta (Homo sapiens) (UniProt P55055); experiment: Antagonist activity against human LXRbeta at 1 uM incubated for 24 hrs by luciferase reporter gene assay
[16] = target: Retinoic acid receptor alpha (Homo sapiens) (UniProt P10276); experiment: Antagonist activity against human RARalpha assessed as inhibition of 9-cis-RA-induced luciferase expression at 1 uM incubated for 24 hrs by luciferase reporter gene assay
[17] = target: T1, Bile acid receptor (Mus musculus); experiment: In vivo antagonist activity at FXR in C57BL/6N mouse ileum assessed as downregulation of Shp mRNA expression at 10 to 30 mg/kg, po administered once daily for 7 days and measured after 25 hrs of last dose by qRT-PCR analysis; type: functional, organism-based; details: dose 10-30 mg/kg, time 7.0 day
[18] = target: T4, Retinoic acid receptor RXR-alpha (Homo sapiens); experiment: Antagonist activity against human RXR alpha at 1 uM incubated for 24 hrs by luciferase reporter gene assay
[19] = target: T6, Peroxisome proliferator-activated receptor alpha (Homo sapiens); experiment: Antagonist activity against human PPARalpha assessed as inhibition of GW7647-induced luciferase expression at 1 uM incubated for 24 hrs by luciferase reporter gene assay
[20] = target: T1, Bile acid receptor (Mus musculus); experiment: In vivo antagonist activity at FXR in C57BL/6N mouse ileum assessed as downregulation of Fgf15 mRNA expression at 10 to 30 mg/kg, po administered once daily for 7 days and measured after 25 hrs of last dose by qRT-PCR analysis; type: functional, organism-based; details: dose 10-30 mg/kg, time 7.0 day
[21] = target: Peroxisome proliferator-activated receptor gamma (Homo sapiens) (UniProt P37231); experiment: Antagonist activity against human PPARgamma at 1 uM incubated for 24 hrs by luciferase reporter gene assay
[22] = target: T1, Bile acid receptor (Mus musculus); experiment: In vivo antagonist activity at FXR in C57BL/6N mouse ileum assessed as upregulation of Asbt mRNA expression at 10 to 30 mg/kg, po administered once daily for 7 days and measured after 25 hrs of last dose by qRT-PCR analysis; type: functional, organism-based; details: dose 10-30 mg/kg, time 7.0 day
[23] = target: T2, Peroxisome proliferator-activated receptor delta (Homo sapiens); experiment: Antagonist activity against human PPARdelta at 1 uM incubated for 24 hrs by luciferase reporter gene assay
[24] = target: Oxysterols receptor LXR-alpha (Homo sapiens) (UniProt Q13133); experiment: Antagonist activity against human LXRalpha assessed as inhibition of TO901317-induced luciferase expression at 1 uM incubated for 24 hrs by luciferase reporter gene assay

Activity [1]: inactive
Activity [2]: inactive
Activity [3]: inactive
Activity [4]: inactive
Activity [5]: inactive
Activity [6]: inactive
Activity [7]: inactive
Activity [8]: inactive
Activity [10]: inactive
Activity [11]: inactive
Activity [12]: inactive
Activity [13]: inactive
Activity [14]: inactive
Activity [15]: inactive
Activity [16]: inactive
Activity [17]: Active
Activity [18]: inactive
Activity [19]: inactive
Activity [20]: Active
Activity [21]: inactive
Activity [22]: Active
Activity [23]: inactive
Activity [24]: inactive
SMILES: CC(C)C(=O)N1CCC(C[C@@H](c2nc3ccc(F)cc3n2C2CC2)N2C(=O)CN(c3ccc(Oc4ccc(F)cc4)cc3)C2=O)CC1
Activity [9]: inactive
